Earlier results on one substance are cited in patent US20030099599A1, “Antibiotic spray” (priority 2001, published 2003).

The conditions of the data set: tonsil tissue; given as a reason for penicillin failure and relapse.

Regarding penicillin, the “antibiotic levels at the site of infection” value is on record as 0.67±0.3 microgr\for gr of tonsil tissue.
